This note sets out measurements from patent publication US7229960B2, “Methods and compositions for inhibiting GRB7” (University of Vermont and State Agricultural College, priority 2000, dated 2007).

Chains of the proteins cited; added tags and fusions are not shown.
UniProt P62993, whole entry: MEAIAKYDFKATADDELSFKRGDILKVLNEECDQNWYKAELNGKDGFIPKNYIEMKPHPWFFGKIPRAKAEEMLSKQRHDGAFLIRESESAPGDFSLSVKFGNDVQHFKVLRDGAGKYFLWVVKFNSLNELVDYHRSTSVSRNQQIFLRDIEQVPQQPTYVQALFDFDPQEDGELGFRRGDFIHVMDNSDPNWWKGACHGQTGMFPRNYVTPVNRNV

The target of the assay is T1, association of Grb2 with the ErbB family (Homo sapiens, UniProt P62993).
T1 construct: association of Grb2, compared to Grb7, co-precipitating with the tyrosine phosphorylated ErbB family; endogenous in cells
The assay can be described thus: Co-precipitation of Grb2 with tyrosine phosphorylated ErbB family in SKBR3 cell lysate. The following applies: 1-100 uM peptide, anti-phosphotyrosine at 185 kDa, densitometry; listed as G7-18NATE. The class given is binding. The text has this: This analysis includes monitoring Grb2 association with the ErbB family in the presence of G7-18NATE to test the specificity of G7-18NATE binding.

Entries after “also recorded” stand apart in the source; their conditions may differ.

For the substance ^WFEG YDN TFP C^ [G7BP-5NATE], the “Effect on association of Grb2 with the ErbB family” value is on record as “not Grb2; also recorded: negligible effect”.
